Settings: Lipofundin 10% MCT

With `C/C=C/C[C@@H](C)C(=O)[C@H]1C(=O)N[C@@H](C(C)C)C(=O)N(C)CC(=O)N(C)[C@@H](CC(C)C)C(=O)N[C@@H](C(C)C)C(=O)N(C)[C@@H](CC(C)C)C(=O)N[C@@H](C)C(=O)N[C@H](C)C(=O)N(C)[C@@H](CC(C)C)C(=O)N(C)[C@@H](CC(C)C)C(=O)N(C)[C@@H](C(C)C)C(=O)N1C` [PSC 833, [3′-desoxy-3′-oxo-MeBmt]^1-[Val]^2-Ciclosporin] the “Loading of the fat phase with PSC 833” value was “up to 20%”.
